99 compounds from PubChem BioAssay AID1159606 (Sanford-Burnham Center for Chemical Genomics, 2016) can be followed below.

The list shows a part of the results, in another mix than the full data. Some salts or complexes appear as unconnected parts, following the source record. Calls of active or inactive are those of the source. Cut-off read from the data, not from the text of the source: active = inhibition above about 50%; inactive = the rest.

The test can be described thus: inhibitors of TWEAK-Fn14 signaling, primary screen, luciferase reporter cells, uHTS (AID 1159606). The following applies: TWEAK-stimulated Fn14 reporter cells, luciferase luminescence, 8 h; at 10 µM; active compounds read high. For orientation: In a reporter assay the amount or activity of a reporter protein is the signal.
In general, inhibition refers to the change of the read-out against control, counted positive when it falls. On to `CP(=S)(Nn1cnnc1)Oc1ccccc1` (centres undefined), for which the inhibition is inactive: 4.65%.

With `CP(=O)(Nc1ccccc1Br)Oc1ccccc1` (centres undefined), the inhibition is inactive: -5.64%. With `COc1ccccc1OP(C)(=O)Nc1ccccc1` (centres undefined) the figure was inactive: 13.3%; with `CP(=O)(Oc1ccccc1)OC(c1ccccc1)C(F)(F)F` (centres undefined), inactive: 6.41%; with `CP(=O)(Nc1ccc(SC(F)(F)F)cc1)Oc1ccc(Cl)cc1` (centres undefined), inactive: -1.07%.

As to `Cc1cccc(C)c1OP(C)(=O)Nc1ccc(SC(F)(F)F)cc1` (centres undefined), the inhibition is inactive: 17.2%. The value for `Cc1ccc(Nc2c([N+](=O)[O-])cc([N+](=O)[O-])cc2[N+](=O)[O-])cc1` was active: 56.5%; that for `Cc1cc(C)cc(OP(C)(=O)Nc2ccc(SC(F)(F)F)cc2)c1` (centres undefined) was inactive: 7.56%; that for `CP(=O)(NC(=O)Nc1ccccc1)Oc1ccccc1` (centres undefined) was inactive: 3.18%.

Regarding `CCc1ccc(OP(C)(=O)N2CCN(c3ccc([N+](=O)[O-])cc3)CC2)cc1` (centres undefined), the inhibition was inactive: 4.32%. For `O=[N+]([O-])c1cc([N+](=O)[O-])c(O)c([N+](=O)[O-])c1.c1ccc(Oc2ccncc2)cc1`, the inhibition was inactive: 14.5%. With `CCOC(=O)c1ccc(NP(C)(=O)Oc2ccc(OC)cc2)cc1` (centres undefined) the figure was inactive: 7.28%; with `CCOP(C)(=S)SCC(=O)NC(C)C(=O)O` (centres undefined), inactive: 4.37%; with `CP(=O)(Nc1ccccn1)Oc1ccc(Cl)cc1` (centres undefined), inactive: -11.7%. The value for `CCN(CC)CCCOC(=O)C(O)(c1ccccc1)c1ccccc1` was inactive: 11.9%.

For `COc1ccccc1-c1ccccn1.O=[N+]([O-])c1cc([N+](=O)[O-])c(O)c([N+](=O)[O-])c1`, the inhibition is inactive: -7.86%. The value for `O=[N+]([O-])c1cc([N+](=O)[O-])c(Nc2cccnc2)c([N+](=O)[O-])c1` was inactive: 25.3%; that for `O=[N+]([O-])c1ccc2c(c1)C=Nc1ccccc1O2` was inactive: 20.8%. With `Cc1cccc(C)c1OP(C)(N)=O` (centres undefined) the figure was inactive: -1.89%; with `CC(C)(C)c1ccc(OP(C)(=O)Nc2ccc(SC(F)(F)F)cc2)cc1` (centres undefined), inactive: -4.39%; with `Cc1ccc(NP(C)(=O)Oc2ccccc2)c(C)c1` (centres undefined), inactive: 4.08%. With `COc1ccccc1OP(C)(=O)Nc1ccc(C)cc1` (centres undefined), the inhibition is inactive: 21.8%. With `CCOC(=O)c1ccc(NP(C)(=O)Oc2ccccc2)cc1` (centres undefined), the inhibition was inactive: 6.68%. The value for `Cc1cc(C)cc(OP(C)(N)=O)c1` (centres undefined) was inactive: 6.03%. As to `COc1ccc(OP(C)(=O)Nc2cccc(F)c2)cc1` (centres undefined), the inhibition was inactive: 6.09%. `COc1ccccc1OP(C)(=O)Nc1cc(Cl)ccc1C` (centres undefined): the inhibition was inactive: -1.62%. With `O=C(O)c1cccc(Nc2c([N+](=O)[O-])cc([N+](=O)[O-])cc2[N+](=O)[O-])c1`, the inhibition was inactive: -1.74%.

As to `CC1=NCCc2c1[nH]c1ccccc21.O=[N+]([O-])c1cc([N+](=O)[O-])c(O)c([N+](=O)[O-])c1`, the inhibition is inactive: -2.21%. The value for `COc1ccccc1OP(C)(=O)Nc1cccc(Br)c1` (centres undefined) was inactive: 11.4%; that for `CCOC(=O)c1ccc(NP(C)(=O)Oc2cc(C)cc(C)c2)cc1` (centres undefined) was inactive: 16.2%; that for `Cc1cc(C)cc(OP(C)(=O)Nc2ccc(C)cc2C)c1` (centres undefined) was inactive: -3.01%. With `Cc1ccc(C)c(NP(C)(=O)Oc2ccccc2)c1` (centres undefined), the inhibition is inactive: -16.7%. With `Cc1cc(C)cc(OP(C)(=O)Nc2ccccn2)c1` (centres undefined) the figure was inactive: 3.34%. As to `CP(=O)(Nc1cccc(Br)c1)Oc1ccccc1` (centres undefined), the inhibition was inactive: -4.25%. With `O=[N+]([O-])c1cc([N+](=O)[O-])c(-n2nnc3ccccc32)c([N+](=O)[O-])c1` the figure was inactive: 4.19%; with `CN(Cc1cccnc1)C(=O)COc1ccc(Cl)c(Cl)c1.O=[N+]([O-])c1cc([N+](=O)[O-])c(O)c([N+](=O)[O-])c1`, inactive: -7.05%; with `O=[N+]([O-])c1cc([N+](=O)[O-])c(-c2cnn(-c3ccccc3)c2)c([N+](=O)[O-])c1`, inactive: 22.1%.

Take `Cc1nc2ccc3ccccc3c2s1.O=[N+]([O-])c1cc([N+](=O)[O-])c(O)c([N+](=O)[O-])c1`: the inhibition was inactive: -8.21%. The value for `CCOC(=O)C(CC)C1=NC(C)(C)Cc2ccccc21.O=[N+]([O-])c1cc([N+](=O)[O-])c(O)c([N+](=O)[O-])c1` (centres undefined) was inactive: -0.08%; that for `CC1=C2N=C(C=C3N=C(C(C)=C4[N-][C@@](C)([C@@H]5N=C1[C@](C)(CCC(=O)NC[C@@H](C)OP(=O)([O-])O[C@H]1[C@@H](O)[C@@H](n6cnc7cc(C)c(C)cc76)O[C@@H]1CO)[C@H]5CC(N)=O)[C@@](C)(CC(N)=O)[C@@H]4CCC(N)=O)[C@@](C)(CC(N)=O)[C@@H]3CCC(N)=O)C(C)(C)[C@@H]2CCC(N)=O.[C-]#N.[Co+3]` was inactive: 30.7%. The value for `O=[N+]([O-])c1cc([N+](=O)[O-])c(Nc2nnnn2CCO)c([N+](=O)[O-])c1` was inactive: 27.8%. As to `CN1CCCCC1COC(=O)C1(O)c2ccccc2CCc2ccccc21` (centres undefined), the inhibition was inactive: -11.3%. As to `COc1ccccc1OP(C)(=O)Nc1c(C)cccc1C` (centres undefined), the inhibition was inactive: 7.92%. In the case of `COc1ccc(-c2ccccn2)cc1.O=[N+]([O-])c1cc([N+](=O)[O-])c(O)c([N+](=O)[O-])c1`, the inhibition is inactive: -11.6%. Regarding `CCCOc1ccc(NP(C)(=O)Oc2ccc(Cl)cc2)cc1` (centres undefined), the inhibition was inactive: 0.96%. Consider `CP(=O)(Nc1ccc(SC(F)(F)F)cc1)Oc1ccccc1` (centres undefined), for which the inhibition is inactive: 5.57%. With `COc1ccc(OP(C)(=O)Nc2cccc(Br)c2)cc1` (centres undefined) the figure was inactive: 13.6%. The value for `CN(C)CCOC(=O)C(O)(c1ccccc1)C1CCCCC1` (centres undefined) was inactive: -10.1%; that for `COc1ccc(NP(C)(=O)Oc2ccccc2OC)cc1` (centres undefined) was inactive: 0.7%; that for `O=[N+]([O-])c1ccc(OP2(=O)COCCO2)cc1` (centres undefined) was inactive: 18.2%. With `O=[N+]([O-])c1cc([N+](=O)[O-])c(NCC2CCS(=O)(=O)C2)c([N+](=O)[O-])c1` (centres undefined) the figure was inactive: 44.8%. As to `Cc1cc(-c2cccc3ccccc23)c(C)cn1.O=[N+]([O-])c1cc([N+](=O)[O-])c(O)c([N+](=O)[O-])c1`, the inhibition was inactive: 7.6%. Consider `Cc1c(C(c2ccc3c(c2)OCO3)c2c(C)n(C)n(-c3ccccc3)c2=O)c(=O)n(-c2ccccc2)n1C.O=[N+]([O-])c1cc([N+](=O)[O-])c(O)c([N+](=O)[O-])c1`, for which the inhibition is inactive: -4.76%.

With `CP(=O)(Nc1ccc(SC(F)(F)F)cc1)Oc1ccc(F)cc1` (centres undefined), the inhibition is inactive: -5.34%. For `CCOP(C)(=S)SCC(=O)NC(C)(CC)C(=O)O` (centres undefined), the inhibition was inactive: 2.82%. Consider `CP(=O)(Nc1ccc2c(c1)OCCO2)Oc1ccccc1` (centres undefined), for which the inhibition is active: 66%. As to `Cc1ccccc1NP(C)(=O)Nc1ccccc1C`, the inhibition was inactive: -13%.

`O=[N+]([O-])c1cc([N+](=O)[O-])c(C(F)(F)F)c([N+](=O)[O-])c1O`: the inhibition is inactive: 1.93%. With `O=[N+]([O-])c1cc([N+](=O)[O-])c(Nc2ccc(Cl)cc2)c([N+](=O)[O-])c1` the figure was active: 75.5%; with `CP(=O)(Nc1ccccc1F)Oc1ccccc1` (centres undefined), inactive: -4.79%.

Turning to `CC(C)c1ccc(OP(C)(=O)Nc2ccc(SC(F)(F)F)cc2)cc1` (centres undefined), the inhibition is inactive: 0.91%.

For the compound `O=C(OC1CN2CCC1CC2)c1ccc([N+](=O)[O-])cc1` (centres undefined), the inhibition was inactive: -5.91%. With `O=C(OCCN1CCN(CCOCc2ccccc2)CC1)C(O)(c1ccccc1)c1ccccc1`, the inhibition is inactive: 5.68%. With `COc1ccc2c(c1O)-c1c(O)c(OC)cc3c1[C@H](C2)[N+](C)(C)CC3.O=[N+]([O-])c1cc([N+](=O)[O-])c([O-])c([N+](=O)[O-])c1[O-]` the figure was inactive: -0.12%; with `CCN(CC)CCCNc1ccccc1[N+](=O)[O-].O=[N+]([O-])c1cc([N+](=O)[O-])c(O)c([N+](=O)[O-])c1`, inactive: -3.19%.

Take `CCOC(=O)c1ccc(NP(C)(=O)Oc2ccc(F)cc2)cc1` (centres undefined): the inhibition was inactive: 3.33%. Consider `COc1ccc(OP(C)(=O)Nc2ccc(SC(F)(F)F)cc2)cc1` (centres undefined), for which the inhibition was inactive: -5.49%. With `Cc1c([N+](=O)[O-])cc([N+](=O)[O-])c(Br)c1[N+](=O)[O-]` the figure was inactive: -16%; with `CCN(CC)CCCOC(=O)C(O)(c1ccccc1)C1CCCCC1` (centres undefined), inactive: 3.05%. With `CP(=O)(Nc1ccccc1)Oc1ccc(F)cc1` (centres undefined) the figure was inactive: 11.2%; with `O=[N+]([O-])c1cc([N+](=O)[O-])c(OC2CCCCC2O)c([N+](=O)[O-])c1` (centres undefined), inactive: 5.8%.

`CCCCCOc1ccc(NP(C)(=O)Oc2ccc(Cl)cc2Cl)cc1` (centres undefined): the inhibition was inactive: -2.33%.

As for `Cc1cc(C)cc(OP(C)(=O)Nc2cccc(C(F)(F)F)c2)c1` (centres undefined), the inhibition is inactive: 1.82%. With `O=C1C(O)=C([N+](=O)[O-])C(=O)C(O)=C1[N+](=O)[O-]`, the inhibition is inactive: 8.75%.

As for `COc1ccccc1OP(C)(=O)Nc1ccc(C)c(C)c1` (centres undefined), the inhibition was inactive: 10.1%. Take `COc1ccc(OP(C)(=O)Nc2ccccc2Br)cc1` (centres undefined): the inhibition is inactive: -2.69%. With `CP(=O)(Nc1ccc(Cl)cc1Cl)Oc1ccccc1` (centres undefined) the figure was inactive: -13.3%; with `CCCCCCCCCCCCCCCC1C[N+](C)(C)CCOP(C)(=O)O1` (centres undefined), inactive: -86.4%. The value for `CP(=O)(OCCOc1ccccc1)OCCOc1ccccc1` was inactive: 3.28%; that for `COc1ccccc1OP(C)(=O)Nc1ccc(Br)cc1` (centres undefined) was inactive: 14.4%.

Take `COc1ccc(OP(C)(=O)Nc2ccccn2)cc1` (centres undefined): the inhibition was inactive: 34%. For the compound `CN(C)CCOC(=O)C(O)(c1ccccc1)C1CCCC1` (centres undefined), the inhibition is inactive: -36.1%.

On to `Cc1c(NP(C)(=O)Oc2ccc(C(C)C)cc2)c(=O)n(-c2ccccc2)n1C` (centres undefined), for which the inhibition is inactive: -16%. The value for `O=[N+]([O-])c1cc([N+](=O)[O-])c(Nc2ccccn2)c([N+](=O)[O-])c1` was inactive: 30.9%. With `COc1ccccc1OP(C)(=O)Nc1ccc(C)cc1C` (centres undefined) the figure was inactive: -3.91%. For `CP(=O)(Nc1ccccn1)Oc1ccccc1` (centres undefined), the inhibition was inactive: -14.9%. `CCc1ccc(OP(C)(=O)O)cc1`: the inhibition was inactive: 6.66%. The value for `COc1ccc(OP(C)(=O)Nc2ccc(Br)cc2)cc1` (centres undefined) was inactive: 6.87%; that for `CCN(CC)CC(O)COC(=O)C(O)(c1ccccc1)C1CCCCC1` (centres undefined) was inactive: -15.6%. With `O=C(OCCCN1CCCC1)C(O)(c1ccccc1)C1CCCCC1` (centres undefined) the figure was inactive: -5.92%; with `COc1ccccc1OP(C)(=O)Nc1c(C)n(C)n(-c2ccccc2)c1=O` (centres undefined), inactive: -7.86%. For `CCc1ccc(OP(C)(=O)Nc2cccnc2)cc1` (centres undefined), the inhibition was inactive: 19.9%. The value for `CP(=O)(Oc1ccccc1)N1CCOC1=O` (centres undefined) was inactive: 8.58%; that for `COc1ccccc1OP(C)(=O)Nc1ccccc1Br` (centres undefined) was inactive: -18.6%. With `CC(C)(C)c1ccc(OP(C)(=O)O)cc1` the figure was inactive: 15.4%; with `CP(=O)(Nc1ccc(Cl)cc1)Oc1ccc(F)cc1` (centres undefined), inactive: 0.41%. Consider `CN(C)C(=O)c1c([N+](=O)[O-])cc([N+](=O)[O-])cc1[N+](=O)[O-]`, for which the inhibition was inactive: 9.08%. For the compound `CCOC(=O)c1ccc(NP(C)(=O)Oc2ccc(Cl)cc2)cc1` (centres undefined), the inhibition is inactive: 5.51%. For `CP(=O)(OC12CC3CC(CC(C3)C1)C2)OC12CC3CC(CC(C3)C1)C2`, the inhibition was inactive: 1.35%.
